Source: patent publication US10512810B1, “Method for decontaminating skin exposed to toxic compounds” (dated 2019)

Experiments:
[1] = DAM neat aging at 30, 50 and 70° C., 1H NMR; conditions: 6-7 weeks at 70° C.
[2] = Aging of DAM in bi-pack package, NMR spectra
[3] = DAM aging in water, degradation kinetics by 1H NMR with Arrhenius model; conditions: for k: predicted from Arrhenius model
[4] = DAM aging in PEG 200, degradation kinetics by 1H NMR with Arrhenius model; conditions: for k: predicted from Arrhenius model

diacetylmonoxime
aging by 1H NMR [1]: showed little propensity to age
time at which degradation products first show in NMR ([2]; DAM in water (FIG. 8, peak 810)): ≥ 2 weeks
degradation in NMR without versus with potassium bicarbonate ([2]; FIG. 9, without Potassium Bicarbonate): more than with Potassium Bicarbonate
degradation in NMR ([2]; bipack with DAM in PEG (FIG. 8)): no degradation is present
A (Arrhenius pre-exponential factor) ([3]; DAM in water): 1.611e+15 day⁻¹
E_a of DAM degradation (Arrhenius Thermal model) ([3]; DAM in water): 24.9 kcal/mol
aging by 1H NMR, effect of potassium bicarbonate ([3]; DAM in water with potassium bicarbonate): retarded somewhat
aging by 1H NMR ([3]; DAM in water, 1 week at 70° C.): rapidly aged
k ([3]; DAM in water, 20° C.): 0.000447 day⁻¹
k ([3]; DAM in water, 30° C.): 0.00143 day⁻¹
k ([3]; DAM in water, 50° C.): 0.0374 day⁻¹
shelf life at 70° C. ([3]; DAM in water, 70° C.): 4 days
k ([3]; DAM in water, 70° C.): 0.172 day⁻¹
projected room temperature half-life ([3]; DAM stored in water (10% DAM in water, FIG. 7)): 2.5 years
temperature corresponding to a 4-year shelf life ([3]; water and DAM together): 20 °C
increase of shelf life at 70° C., DAM separated from water versus in water ([4]; 70° C.): 17 factor
A (Arrhenius pre-exponential factor) ([4]; DAM in PEG 200): 3.157e+17 day⁻¹
E_a of DAM degradation (Arrhenius Thermal model) ([4]; DAM in PEG 200): 30.8 kcal/mol
k ([4]; DAM in PEG 200, 20° C.): 3.52e-06 day⁻¹
k ([4]; DAM in PEG 200, 30° C.): 2.54e-05 day⁻¹
k ([4]; DAM in PEG 200, 50° C.): 0.00029 day⁻¹
k ([4]; DAM in PEG 200, 70° C.): 0.0101 day⁻¹
shelf life at 70° C. ([4]; DAM separated from water (in PEG), 70° C.): 68 days
projected room temperature half-life ([4]; DAM stored with PEG (10% DAM in PEG, FIG. 7)): hundreds of years
aging by 1H NMR ([4]; DAM with PEG 200, 70° C., two weeks): Some changes were seen
temperature corresponding to a 4-year shelf life ([4]; water and DAM separated): 50 °C
